Assay: Pharmacokinetics of hydrocodone prodrugs following PO administration to dogs, with or without Compound 109

COc1ccc2c3c1O[C@H]1C(=O)CC[C@H]4[C@@H](C2)N(C)CC[C@]314 [Hydrocodone, hydrocodone]
Tmax ± sd (Table 13: dog plasma, PO, hydrocodone […] (0.5 μmol/kg)): 25 ± 5.76 min | Tmax (male, beagle, dog, plasma, po, […]): 25 ± 5.76 min
